Amino acid sequences for entries named in this document (tags omitted). Residues count along the entry.
UniProt P13612, 34-1032 limits assumed: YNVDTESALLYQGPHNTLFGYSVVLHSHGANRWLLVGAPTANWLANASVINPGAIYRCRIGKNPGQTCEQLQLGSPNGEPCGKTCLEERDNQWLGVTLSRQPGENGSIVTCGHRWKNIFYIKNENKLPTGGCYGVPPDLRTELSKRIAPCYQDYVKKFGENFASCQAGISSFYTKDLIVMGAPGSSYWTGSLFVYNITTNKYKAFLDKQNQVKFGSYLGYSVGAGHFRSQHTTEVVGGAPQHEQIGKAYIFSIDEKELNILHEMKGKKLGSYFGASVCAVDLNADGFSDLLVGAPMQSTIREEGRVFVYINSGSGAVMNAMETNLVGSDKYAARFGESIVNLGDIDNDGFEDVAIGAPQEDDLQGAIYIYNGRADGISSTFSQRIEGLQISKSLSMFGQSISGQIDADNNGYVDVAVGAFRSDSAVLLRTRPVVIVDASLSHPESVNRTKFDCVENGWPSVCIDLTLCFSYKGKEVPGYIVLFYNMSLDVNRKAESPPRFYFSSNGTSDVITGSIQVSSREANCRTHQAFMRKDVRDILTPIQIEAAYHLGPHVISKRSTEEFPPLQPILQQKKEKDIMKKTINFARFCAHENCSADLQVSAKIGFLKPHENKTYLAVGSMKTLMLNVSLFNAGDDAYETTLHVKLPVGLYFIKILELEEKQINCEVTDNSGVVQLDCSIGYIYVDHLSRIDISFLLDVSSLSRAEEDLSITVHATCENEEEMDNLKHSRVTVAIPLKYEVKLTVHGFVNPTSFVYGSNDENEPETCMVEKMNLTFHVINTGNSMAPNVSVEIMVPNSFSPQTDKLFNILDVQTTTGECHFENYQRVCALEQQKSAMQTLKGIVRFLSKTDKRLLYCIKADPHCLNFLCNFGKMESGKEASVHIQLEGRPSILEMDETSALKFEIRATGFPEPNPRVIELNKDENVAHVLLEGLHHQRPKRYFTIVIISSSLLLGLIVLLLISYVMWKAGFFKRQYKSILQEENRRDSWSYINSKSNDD
UniProt P26010, 20-798 limits assumed: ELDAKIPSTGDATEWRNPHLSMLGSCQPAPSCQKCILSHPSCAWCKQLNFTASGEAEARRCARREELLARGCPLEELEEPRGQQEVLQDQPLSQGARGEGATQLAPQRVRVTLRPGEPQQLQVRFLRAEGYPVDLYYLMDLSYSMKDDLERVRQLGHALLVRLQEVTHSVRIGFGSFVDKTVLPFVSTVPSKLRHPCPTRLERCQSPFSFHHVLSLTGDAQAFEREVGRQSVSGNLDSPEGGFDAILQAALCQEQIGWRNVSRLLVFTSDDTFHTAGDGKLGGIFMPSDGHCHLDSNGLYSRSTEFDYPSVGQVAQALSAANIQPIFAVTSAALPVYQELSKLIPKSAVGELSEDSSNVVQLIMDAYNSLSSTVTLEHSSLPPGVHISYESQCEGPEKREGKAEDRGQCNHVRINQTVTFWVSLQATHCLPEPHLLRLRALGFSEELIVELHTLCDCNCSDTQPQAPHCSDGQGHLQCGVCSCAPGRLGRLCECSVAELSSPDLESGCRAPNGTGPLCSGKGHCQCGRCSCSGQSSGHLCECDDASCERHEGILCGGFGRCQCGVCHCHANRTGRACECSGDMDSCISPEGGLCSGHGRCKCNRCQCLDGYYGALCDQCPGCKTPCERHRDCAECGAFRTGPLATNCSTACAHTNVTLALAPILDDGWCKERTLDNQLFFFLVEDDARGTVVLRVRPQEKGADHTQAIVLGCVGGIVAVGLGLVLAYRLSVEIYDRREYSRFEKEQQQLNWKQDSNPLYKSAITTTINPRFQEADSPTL
UniProt P05556, 21-798 limits assumed: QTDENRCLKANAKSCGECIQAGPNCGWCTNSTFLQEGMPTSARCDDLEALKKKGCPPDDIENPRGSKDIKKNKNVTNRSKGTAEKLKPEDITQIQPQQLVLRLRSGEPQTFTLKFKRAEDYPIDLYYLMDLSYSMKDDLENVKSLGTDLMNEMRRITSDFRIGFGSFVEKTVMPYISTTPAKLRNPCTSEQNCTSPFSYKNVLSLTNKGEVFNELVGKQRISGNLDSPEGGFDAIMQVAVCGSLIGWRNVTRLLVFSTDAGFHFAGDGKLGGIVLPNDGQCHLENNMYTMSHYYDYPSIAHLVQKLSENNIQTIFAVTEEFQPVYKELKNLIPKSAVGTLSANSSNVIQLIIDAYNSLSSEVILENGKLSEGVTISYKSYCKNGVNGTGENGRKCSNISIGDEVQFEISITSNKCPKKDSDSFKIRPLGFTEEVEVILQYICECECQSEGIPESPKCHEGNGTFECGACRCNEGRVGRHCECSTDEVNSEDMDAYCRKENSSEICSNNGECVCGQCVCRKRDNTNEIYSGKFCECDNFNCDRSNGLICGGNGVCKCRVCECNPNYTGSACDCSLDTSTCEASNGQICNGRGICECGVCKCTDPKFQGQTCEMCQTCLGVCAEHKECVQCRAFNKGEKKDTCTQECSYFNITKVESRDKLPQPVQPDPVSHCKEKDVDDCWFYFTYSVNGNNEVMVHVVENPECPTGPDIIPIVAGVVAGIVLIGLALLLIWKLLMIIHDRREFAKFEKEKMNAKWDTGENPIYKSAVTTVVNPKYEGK

According to patent US8426588B2, “Phenylalanine derivatives” (Ajinomoto Co, Inc., priority 2000, dated 2013):

Assays:
[1] = biological target: integrin α4β7 (Homo sapiens, UniProt P13612+P26010); assay: VCAM antagonistic activity (VCAM-1/α4β7 binding assay), RPMI-8866 cells binding to VCAM-1; type: cell-based; conditions: read-out: VCAM antagonistic activity (IC50) α4β7; RPMI-8866 human B lymphoma cells binding to recombinant human VCAM-1; binding buffer with 4 mM MnCl2
[2] = biological target: integrin α4β1 (Homo sapiens, UniProt P05556+P13612); assay: VCAM antagonist activity (VCAM-1/α4β1 binding assay), Jurkat cells binding to VCAM-1; type: cell-based; conditions: read-out: VCAM antagonistic activity (IC50) α4β1; Jurkat human T cells binding to recombinant human VCAM-1

Structure (SMILES)	IC50 [1]	IC50 [2]
O=C(N[C@@H](Cc1ccc(-n2c(=O)c3ccccc3n(-c3ccccc3)c2=O)cc1)C(=O)O)c1c(Cl)cccc1Cl	20 nM	–
O=C(N[C@@H](Cc1ccc(-n2c(=S)[nH]c3ccccc3c2=O)cc1)C(=O)O)c1c(Cl)cccc1Cl	26 nM	1260 nM
Cn1c(=O)n(-c2ccc(C[C@H](NC(=O)c3c(Cl)cccc3Cl)C(=O)O)cc2)c(=O)c2nccnc21	–	60 nM
